Assay results as given in patent US9855265B2, “Methods for treating cancer with TrkA receptor tyrosine kinase antagonists” (VM Oncology LLC, priority 2014, dated 2018).

System: PANC-1 subcutaneous human pancreatic cancer xenografts
Test: PANC-1 Subcutaneous Human Pancreatic Cancer Xenograft Mouse Model
Settings: Day 18; gemcitabine 20 mg/kg (alone or with Compound-12, see label)

## Nc1ccn([C@@H]2O[C@H](CO)[C@@H](O)C2(F)F)c(=O)n1 [Gemcitabine, gemcitabine]
  Tumor volume (Mean ± SEM): 184 ± 13 mm^3
